Reference: PMC10299909 (2023)

Chains of the proteins cited; added tags and fusions are not shown. Lines headed by an entry give the natural chain unless they say otherwise; changes in a name come on top. A line that says so, or that is headed by a name, gives the form on record, which may keep a tag or linker.
UniProt P11229: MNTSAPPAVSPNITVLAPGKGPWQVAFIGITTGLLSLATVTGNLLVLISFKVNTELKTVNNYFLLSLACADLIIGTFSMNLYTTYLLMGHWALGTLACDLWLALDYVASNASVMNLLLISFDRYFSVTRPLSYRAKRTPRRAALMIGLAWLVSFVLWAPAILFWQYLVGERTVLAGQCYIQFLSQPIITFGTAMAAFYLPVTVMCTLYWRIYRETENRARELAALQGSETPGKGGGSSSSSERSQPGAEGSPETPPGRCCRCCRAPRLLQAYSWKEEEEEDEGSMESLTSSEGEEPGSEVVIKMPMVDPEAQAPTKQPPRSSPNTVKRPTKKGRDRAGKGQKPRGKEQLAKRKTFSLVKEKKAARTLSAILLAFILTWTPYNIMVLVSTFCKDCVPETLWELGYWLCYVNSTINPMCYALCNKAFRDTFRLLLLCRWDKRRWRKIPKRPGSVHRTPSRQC
UniProt P08172, other isoform, or with tags, fused parts or gaps: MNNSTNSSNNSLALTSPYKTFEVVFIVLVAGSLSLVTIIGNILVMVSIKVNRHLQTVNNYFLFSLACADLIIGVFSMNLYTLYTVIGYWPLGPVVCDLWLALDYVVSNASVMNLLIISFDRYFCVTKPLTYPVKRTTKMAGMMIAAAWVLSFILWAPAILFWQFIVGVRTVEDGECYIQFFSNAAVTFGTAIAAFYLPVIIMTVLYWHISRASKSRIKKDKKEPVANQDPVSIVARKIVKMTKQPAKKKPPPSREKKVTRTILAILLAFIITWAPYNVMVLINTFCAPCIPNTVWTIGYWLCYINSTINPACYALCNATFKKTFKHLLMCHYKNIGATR
UniProt P08912, whole entry: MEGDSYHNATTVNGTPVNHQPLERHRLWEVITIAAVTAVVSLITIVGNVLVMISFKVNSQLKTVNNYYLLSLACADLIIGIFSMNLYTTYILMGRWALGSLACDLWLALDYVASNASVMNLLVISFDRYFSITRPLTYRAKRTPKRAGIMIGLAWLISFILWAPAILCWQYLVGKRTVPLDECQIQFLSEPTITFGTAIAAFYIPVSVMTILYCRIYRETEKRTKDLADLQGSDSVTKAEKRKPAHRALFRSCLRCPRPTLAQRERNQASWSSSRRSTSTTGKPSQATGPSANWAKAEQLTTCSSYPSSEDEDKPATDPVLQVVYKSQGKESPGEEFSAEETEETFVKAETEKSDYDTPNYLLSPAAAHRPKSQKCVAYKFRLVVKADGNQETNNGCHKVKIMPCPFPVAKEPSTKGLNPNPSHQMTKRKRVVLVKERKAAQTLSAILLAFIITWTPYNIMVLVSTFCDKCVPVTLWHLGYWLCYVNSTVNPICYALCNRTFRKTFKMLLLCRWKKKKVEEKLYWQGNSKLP
UniProt P08173, whole entry L190F: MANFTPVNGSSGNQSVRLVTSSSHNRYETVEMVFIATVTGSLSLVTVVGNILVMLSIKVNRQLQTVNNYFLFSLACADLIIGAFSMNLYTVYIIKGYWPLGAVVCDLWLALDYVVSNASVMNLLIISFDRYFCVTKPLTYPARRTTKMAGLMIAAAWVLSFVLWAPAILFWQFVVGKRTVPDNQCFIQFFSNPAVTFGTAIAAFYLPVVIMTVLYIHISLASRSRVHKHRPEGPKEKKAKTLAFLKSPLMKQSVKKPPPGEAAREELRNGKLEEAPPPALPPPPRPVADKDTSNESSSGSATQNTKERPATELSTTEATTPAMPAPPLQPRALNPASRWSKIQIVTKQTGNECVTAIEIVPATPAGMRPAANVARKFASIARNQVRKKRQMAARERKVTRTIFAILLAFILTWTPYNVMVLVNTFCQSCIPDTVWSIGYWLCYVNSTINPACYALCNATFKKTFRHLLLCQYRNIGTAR
UniProt P08173, whole entry: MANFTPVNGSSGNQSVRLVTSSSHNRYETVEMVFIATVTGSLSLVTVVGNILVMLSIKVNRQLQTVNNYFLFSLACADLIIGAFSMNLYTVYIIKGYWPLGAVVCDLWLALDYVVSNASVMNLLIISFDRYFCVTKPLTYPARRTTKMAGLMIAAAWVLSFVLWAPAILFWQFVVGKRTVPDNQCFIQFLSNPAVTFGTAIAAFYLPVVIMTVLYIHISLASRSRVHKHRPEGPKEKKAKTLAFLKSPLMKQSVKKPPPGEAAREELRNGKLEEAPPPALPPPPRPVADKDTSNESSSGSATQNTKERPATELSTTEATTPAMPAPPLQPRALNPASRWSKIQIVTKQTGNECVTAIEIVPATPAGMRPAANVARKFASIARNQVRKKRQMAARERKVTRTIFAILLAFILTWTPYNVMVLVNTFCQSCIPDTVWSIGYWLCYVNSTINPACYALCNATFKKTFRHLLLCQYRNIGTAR

Columns and labels:
[1] = molecular target: M1 mAChR (Homo sapiens, UniProt P11229); conditions: first set of experiments
[2] = molecular target: M2 mAChR (Homo sapiens, UniProt P08172); conditions: for Figure 4a normalised binding, G+: M2, G+; for Figure 4a normalised binding, G-: M2, G-; for Fraction of receptors in a G protein-dependent high-affinity state: M2 mAChR
[3] = molecular target: M5 mAChR (Homo sapiens, UniProt P08912); experiment: pERK1/pERK2 signaling assay (AlphaScreen SureFire), CHO FlpIn cells; assay type: cell-based; conditions: first set of experiments
[4] = molecular target: M4 L190F mAChR (Homo sapiens, UniProt P08173, L190F); experiment: as above; assay type: cell-based; conditions: second set of experiments
[5] = molecular target: M4 mAChR (Homo sapiens, UniProt P08173); experiment: as above
[6] = log[Xano] M -4, individual experiments
[7] = log[Xano] M -4.5, individual experiments
[8] = log[Xano] M -5, individual experiments
[9] = log[Xano] M -6, individual experiments
[10] = log[Xano] M -7, individual experiments
[11] = log[Xano] M -8, individual experiments

## CCCCCCOc1nsnc1C1=CCCN(C)C1 [Xanomeline, xanomeline]
[1]
  Emax pERK1/2: 79 ± 5 % FBS stimulation
[2]; [6]
  Figure 4a normalised binding, G+: 5.146 and 9.812 and 8.929
  Figure 4a normalised binding, G-: -2.951 and -0.531 and -4.32
[2]; [7]
  Figure 4a normalised binding, G+: 1.434 and 8.6224 and 4.545
  Figure 4a normalised binding, G-: 0.8048 and 6.0177 and -5.832
[2]; [8]
  Figure 4a normalised binding, G+: 0 and -2.081 and 19.1558
  Figure 4a normalised binding, G-: 5.298 and 13.6283 and -1.512
[2]; [9]
  Figure 4a normalised binding, G+: 20.6664 and 27.0565 and 26.9481
  Figure 4a normalised binding, G-: 35.5466 and 54.5133 and 82.5054
[2]; [10]
  Figure 4a normalised binding, G+: 54.5761 and 40.4221
  Figure 4a normalised binding, G-: 87.9276 and 98.2301 and 107.775
[2]; [11]
  Figure 4a normalised binding, G+: 97.849 and 52.2299 and 31.9805
  Figure 4a normalised binding, G-: 100 and 75.5752
[2]; M2, relative to R = 0
  Energy of state RL (ternary complex model): -8.151 kcal/mol
  Energy of state RLG (ternary complex model): -24.4535 kcal/mol
[2]; Receptor : G protein Molar Ratio 1:0
  Fraction of receptors in a G protein-dependent high-affinity state: 0.00 ± 0.27
[2]; Receptor : G protein Molar Ratio 1:500
  Fraction of receptors in a G protein-dependent high-affinity state: 0.00 ± 0.29
[2]; Receptor : G protein Molar Ratio 1:1000
  Fraction of receptors in a G protein-dependent high-affinity state: 0.17± 0.33
[2]; Receptor : G protein Molar Ratio 1:2000
  Fraction of receptors in a G protein-dependent high-affinity state: 0.59 ± 0.60
[2]; M2 nanodiscs, Receptor : G protein molar ratio 1:1000
  pKI high (high-affinity state, Gi1-receptor complex): 7.10 ± 0.94

## CC(=O)OCC[N+](C)(C)C [Acetylcholine, acetylcholine]
[3]
  Efficacy corrected for receptor expression levels (LogtC), operational model, pERK1/2: 3.43 ± 0.16
[4]
  Efficacy corrected for receptor expression levels (LogtC), operational model, pERK1/2: 3.82 ± 0.14
[5]; first set of experiments (top 5 rows)
  Efficacy corrected for receptor expression levels (LogtC), operational model, pERK1/2: 2.94 ± 0.10
[5]; second set of experiments (bottom 4 rows)
  Efficacy corrected for receptor expression levels (LogtC), operational model, pERK1/2: 3.59 ± 0.08

Values joined by “and” are separate entries in the source; they are usually repeats but may differ in a detail not shown here. Equal values may be shown once. Read-outs that look alike come from different tables or passages of the source.
